Sampled rows, rich in hits. Any-hit rate of the full collection: about 16%.
TDP1 inh: TDP1 (human) enzyme inhibition; 350,000 compounds, 0.28% hits; Q9NUW8; recombinant TDP1, AlphaScreen DNA substrate cleavage; Potency, µM (titrated, usually from 130 µM), actives largely listed as inhibitors; AID 485290; also: nearly all actives have a fitted effect of over 40% in size
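Recombinant human Tdp1 (E. coli-expressed, 1 nM final) preincubated with compounds 15 min at room temperature, then 5'-biotin/3'-phosphotyrosine-FITC DNA substrate (15 nM final) added for 5 min. AlphaScreen beads (10 ug/ml final) added 10 min; cleavage lowers signal.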
uPA generation: inhibitors of cell surface uPA generation | 330,000 compounds, 0.31% hits | cell surface uPA generation assay, qHTS | Potency, µM (top dose mostly 38.3 µM), hits mostly inhibitors; active = well fitted inhibition curve with a large enough effect; inconclusive = small, poorly fitted or top-dose-only effect; inactive = no such curve, though single readings can be large or run the other way; tested in mouse RAW 264.7 cells; also: nearly all actives have a fitted effect of over 55% in size
DT40 TDP1 CPT: growth inhibition of DT40 Tdp1-/-;hTDP1 cells with camptothecin (screen for TDP1 inhibitors); chicken DT40 Tdp1-/-;hTDP1 cells + 20 nM CPT, ATP luminescence, 48 h; Potency, µM (top dose mostly 46.2 µM), most hits filed as inhibitors; 420,000 compounds, 12% hits; AID 686979; also: nearly all actives have a fitted effect of over 55% in size
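Chicken DT40 Tdp1-/- cells complemented with human TDP1, 400 cells/well, exposed to compounds plus 20 nM camptothecin for at least 48 h at 37 C; viability read as ATP content by CellTiter-Glo luminescence.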
miR-21 reporter: raises the signal of a miR-21 reporter; HeLa miR-21 FLuc reporter, luciferase, 48 h; Potency, µM (top dose mostly 38.3 µM); AID 2288; 340,000 tested, under 10 active; active = well fitted rising curve with a large enough effect; inconclusive = small, poorly fitted or top-dose-only effect; inactive = no such curve, though single readings can be large or run the other way;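 note: miR-21 action dims this reporter so a rising signal means less miR-21 action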
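HeLa miR-21-FLuc reporter line, endogenous miR-21; 2000 cells/well in DMEM/10% FBS; compound titration up to ~40uM final, 48 h, 37 degree Celsius; luciferase detection reagent, 15 min lysis, CCD luminescence.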
TDP1 cell noCPT: qHTS for Inhibitors of human tyrosyl-DNA phosphodiesterase 1 (TDP1): qHTS in cells in absence of CPT | DT40 Tdp1-/- hTDP1 cells, no CPT, ATP luminescence, 48 h | Potency, µM (titrated, usually from 46.2 µM), actives largely listed as inhibitors | 420,000 compounds, 15% hits | AID 686978, 2013; also: nearly all actives have a fitted effect of over 55% in size
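Readout: luminescence from CellTiter-Glo after 30 min in the dark at RT. Cells: DT40 Tdp1-/- with stable hTDP1, 400/well. Exposure: compounds alone, ≥48 hr, 37 °C.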
Each line names hits and unclear results; the compound was inactive in the other large screens. Unless noted, calls follow the shape of the dose curve; as a rule, active = well fitted curve in the direction sought with a large enough effect; inconclusive = small, poorly fitted or top-dose-only effect, or another doubt; inactive = no such curve, though single readings can be large; an effect the other way counts as inactive or inconclusive.

O=C(NCC(c1ccco1)N1CCc2ccccc2C1)c1cccc(Br)c1 (stereo not given)	TDP1 cell noCPT inconclusive (no result: miR-21 reporter)
CCOC(=O)/C=c1\s/c(=C\c2ccc3cc(OC)ccc3c2)c(=O)n1CC(=O)NCC1CCCO1 (stereo not given)	DT40 TDP1 CPT 9.2µM, TDP1 cell noCPT 6.51µM
CCOC(=O)/C=c1\s/c(=C\c2ccc(C)cc2)c(=O)n1CC(=O)NCc1ccco1	DT40 TDP1 CPT 16.4µM, TDP1 cell noCPT inconclusive
CCOC(=O)/C=c1\s/c(=C\c2ccc(-c3ccccc3)cc2)c(=O)n1CC(=O)NCc1ccc2c(c1)OCO2	DT40 TDP1 CPT 9.2µM, TDP1 cell noCPT 9.2µM
CCOC(=O)/C=c1/s/c(=C/c2ccc3cc(OC)ccc3c2)c(=O)n1CC(=O)NCc1ccc2c(c1)OCO2	DT40 TDP1 CPT 5.8µM, TDP1 cell noCPT 9.2µM (no result: TDP1 inh, miR-21 reporter)
COc1cc2c(cc1OC)n(CC(=O)c1ccc(C)cc1C)c(=O)n1nc(CCn3nc(C)cc3C)nc21	none (no result: uPA generation)
Cc1ccc(NC(=S)NC(NC(=O)c2ccco2)C(Cl)(Cl)Cl)cc1 (stereo not given)	DT40 TDP1 CPT 16.4µM, TDP1 cell noCPT inconclusive
CCCCC(=O)Nc1ccc(C(=O)NNC(=O)c2ccco2)cc1	none
O=C(NC(=S)Nc1cccc(NC(=S)NC(=O)c2ccco2)n1)c1ccco1	TDP1 cell noCPT 5.17µM
CCCCC(=O)Nc1ccc(C(=O)NNC(=S)NC(=O)c2ccco2)cc1	DT40 TDP1 CPT 13µM, TDP1 cell noCPT 23.1µM
CCOc1ccc(NC(=O)c2ccco2)cc1	uPA generation inconclusive
O=C(O)c1ccc(NC(=S)NC(NC(=O)c2ccco2)C(Cl)(Cl)Cl)cc1 (stereo not given)	none
CCOc1ccc(NC(=S)NC(=O)c2ccco2)cc1	TDP1 cell noCPT 29.1µM (no result: TDP1 inh)
CCOc1ccccc1CNc1ncnc2ccc(-c3c(C)noc3C)cc12	uPA generation inconclusive (no result: DT40 TDP1 CPT, miR-21 reporter, TDP1 cell noCPT)
CCOC(=O)c1nn(-c2cccc(OC)c2)c(-c2ccccc2)c1C(=O)c1ccccc1	DT40 TDP1 CPT inconclusive, TDP1 cell noCPT inconclusive
O=C(Nc1ccc(NC(=S)NC(=O)c2ccco2)cc1)c1ccc(Br)cc1	none (no result: TDP1 inh, uPA generation, miR-21 reporter)
O=C(NC(=S)NNC(=O)c1ccccc1O)c1ccco1	DT40 TDP1 CPT 20.6µM, TDP1 cell noCPT 18.4µM
O=C(NNC(=S)NC(=O)c1ccco1)c1ccc(NC(=O)c2ccccc2)cc1	DT40 TDP1 CPT 16.4µM, TDP1 cell noCPT 20.6µM
COc1ccccc1-c1cc(C(=O)N/N=C/c2sccc2C)c2ccccc2n1	DT40 TDP1 CPT 6.51µM, TDP1 cell noCPT 1.03µM
Cc1ccsc1/C=N/NC(=O)c1c[nH]c2ccccc12	DT40 TDP1 CPT inconclusive, TDP1 cell noCPT inconclusive
Cc1ccsc1/C=N/NC(=O)c1cc(-c2ccncc2)nc2ccccc12	DT40 TDP1 CPT 0.581µM, TDP1 cell noCPT 0.581µM
COc1ccc(CN(C)C(=O)c2ccc(NS(=O)(=O)c3ccc(F)cc3)cc2)c(OC)c1OC	DT40 TDP1 CPT inconclusive, TDP1 cell noCPT inconclusive
O=C(NCc1ccc(Cl)cc1)C1CCCN1C(=O)Nc1ccc(F)cc1 (stereo not given)	none (no result: TDP1 inh)
COc1ccc(S(=O)(=O)N2CCOCC2)cc1N=Nc1sc(N)nc1-c1ccccc1	TDP1 cell noCPT 2.31µM
COc1ccc(S(=O)(=O)N2CCOCC2)cc1NC(=O)CSc1nnc(N)s1	none (no result: TDP1 inh, miR-21 reporter)
O=C(COC(=O)C1CC1)NCCNC(=O)COC(=O)C1CC1	DT40 TDP1 CPT inconclusive (no result: miR-21 reporter)
COC(=O)c1nc(-c2ccc(C)cc2)oc1N(C)C	none
Cc1ccc(S(=O)(=O)c2nc(-c3ccccc3Br)oc2N(C)C)cc1	DT40 TDP1 CPT 20.6µM, TDP1 cell noCPT inconclusive (no result: TDP1 inh, miR-21 reporter)
Cc1ccc(S(=O)(=O)c2nc(-c3ccccc3Cl)oc2N(C)C)cc1	DT40 TDP1 CPT 7.31µM, TDP1 cell noCPT 10.3µM
Cc1ccc(-c2nc(S(=O)(=O)c3ccc(C)cc3)c(N(C)C)o2)cc1	DT40 TDP1 CPT inconclusive, TDP1 cell noCPT 23.1µM
CCOC(=O)C(/C=C(\C#N)C(=O)OCC)=C(/N)N1CCN(c2ccc(OC)cc2)CC1	none
Cn1c(=O)c2c(nc(OCC3COC(C)(C)O3)n2Cc2ccccc2F)n(C)c1=O (stereo not given)	TDP1 cell noCPT inconclusive
CCOC(=O)C1(CCCc2ccccc2)CCN(C(=O)c2ocnc2C)CC1	TDP1 cell noCPT inconclusive
CCOC(=O)C1(CCCc2ccccc2)CCN(C(=O)Cn2nc(C)nc2C)CC1	DT40 TDP1 CPT 23.1µM, TDP1 cell noCPT inconclusive (no result: TDP1 inh)
CCOC(=O)C1(CCCc2ccccc2)CCN(C(=O)c2n[nH]c(CC)c2C)CC1	DT40 TDP1 CPT 23.1µM, TDP1 cell noCPT 13µM (no result: TDP1 inh, uPA generation, miR-21 reporter)
CCOC(=O)C1(CCCc2ccccc2)CCN(C(=O)c2cncs2)CC1	DT40 TDP1 CPT 18.4µM, TDP1 cell noCPT 23.1µM
CCOC(=O)C1(CCCc2ccccc2)CCN(C(=O)c2cc(C)nn2CC)CC1	DT40 TDP1 CPT 18.4µM, TDP1 cell noCPT 9.2µM
CCOC(=O)C1(CCCc2ccccc2)CCN(C2CCSCC2)CC1	DT40 TDP1 CPT 16.4µM, TDP1 cell noCPT 13µM
OCC1(CCCc2ccccc2)CCN(C2CCSCC2)CC1	none (no result: TDP1 inh)
O=C(CCl)N(c1ccc(Cl)cc1)c1c[nH]c2ccccc12	DT40 TDP1 CPT 1.84µM, miR-21 reporter inconclusive, TDP1 cell noCPT 1.84µM
O=C(NCc1ccc(Cl)cc1)C(=O)c1c[nH]c2ccccc12	DT40 TDP1 CPT inconclusive
O=C(CCl)N(c1ccccc1)c1c[nH]c2ccccc12	DT40 TDP1 CPT 2.31µM, miR-21 reporter inconclusive, TDP1 cell noCPT 2.91µM (no result: TDP1 inh)

Source: PubChem BioAssay (National Center for Advancing Translational Sciences (NCATS))
